Test system: male SA rats
Experiment: Anticonvulsant activity, maximal electroshock (MES) model
Type: in vivo
Details: Rattus norvegicus, ip, 1 h
Experimental: The anticonvulsant activity of the tested compounds was evaluated in male SA rats (100-150 g, Simonsen) using the maximal electroshock (MES) model described in Swinyard et al., Antiepileptic Drugs, 3d Ed. at 85-102 (Levy, et al., eds.), N.Y.: Raven Press (1989). The rats were maintained on a 12/12 light/dark cycle in temperature controlled facilities with free access to food and water. For p.o. administration, the animals are fasted overnight, prior to the experiment. One hour prior to seizure testing, the animals were injected interperitoneally (ip) or orally (per os, […]) with one of various doses of test compound dissolved in DMSO or PEG 400.
This endpoint was expressed as the percentage of animals in which the response was inhibited.

C[C@H]1O[C@@H](n2cc(-c3ccccc3)c3c(Nc4ccc(CN(C)C)cc4)ncnc32)[C@H](O)[C@@H]1O [Compound 1, 4-N(N,N-Dimethylaminomethylphenyl)amino-5-phenyl-7-(5-deoxy-β-D-ribofuranosyl)pyrrolo[2,,3-d]pyrimidine]
ED50: 5 mg/kg
